For 1 molecule, IkBa stabilization activation results are on record in PubChem BioAssay AID445 (National Center for Advancing Translational Sciences (NCATS), 2006).

This is a selection; strong and weak results do not stand in their true shares. Records with an inconclusive call do not appear. Active and inactive are the calls of the source. Calls follow the shape of the dose curve; as a rule, active = well fitted curve in the direction sought with a large enough effect in the signal ratio (not every such curve was filed as active); inconclusive = small, poorly fitted or top-dose-only effect, or a change in a side signal; inactive = flat fitted curve, though single readings scatter; the % refers to the signal ratio.

A short description of this experiment: IkB Signaling.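 Also: 0% = basal untreated cells and 100% = reference inhibitor full response.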 Particulars: ABC-DLBCL IkBa-CBG/CBR dual luciferase ratio (green luciferase fused to IkBa over red control in OCI-Ly3 lymphoma cells), 4 h, scaled: untreated 0%, proteasome inhibitor 100%; at 57.1 µM (top of the series). From the text: NIH Molecular Libraries Screening Centers Network [MLSCN]
NIH Chemical Genomics Center [NCGC]
Nuclear factor kappa-B (NF-kappa-B) plays an important role in normal B cell development and survival. Diffuse large B cell lymphoma (DLBCL) is the most commonly observed type of non-Hodgkin's lymphoma. Gene expression analysis has identified an activated B cell-like subtype of DLBCL (ABC-DLBCL) which expresses known NF-kappa-B target genes. […] However, targets upstream of IKK have been largely unexplored and so nodes upstream of IKK in the NF-kappa-B pathway remain untested due to the lack of chemical probes.
A cell-sensor assay for I-kappa-B-alpha stabilization was developed with NIH investigator Dr. R. Eric Davis in Dr. Louis M. Staudt's laboratory. […] Following the addition of doxycycline to induce expression of the luciferases, the green luminescence in control cultures rises only slowly because the CBG fusion partner I-kappa-B-alpha is targeted by IKK activity for rapid degradation. In contrast, green luminescence rises rapidly in the presence of proteasome inhibitors or IKK inhibitors. The rise in red luminescence of CBR is not affected by proteasome or IKK inhibitors, and serves as normalization for cell number and nonspecific effects. […]
Keywords: IKK, I-kappa-B, IkB, IkBa, cytotoxicity, luminescence, MLSMR, MLSCN, NIH Roadmap, qHTS, NCGC
Consider `O=[N+]([O-])C(Cl)(Cl)Cl`, for which the IkBa stabilization activation was inactive: -1.55%.
